Data taken from ChEMBL document CHEMBL1131891, “Antiplatelet actions of aporphinoids from Formosan plants” (Bioorg Med Chem Lett, 1999).

How the values were obtained:
Oryctolagus cuniculus [1] = species on record: Oryctolagus cuniculus; test: Effect on platelet aggregation induced by adenosine 5'-diphosphate (ADP) in washed rabbit platelet
Oryctolagus cuniculus [2] = species on record: Oryctolagus cuniculus; test: Effect on platelet aggregation induced by collagen in washed rabbit platelet; type: functional
Oryctolagus cuniculus [3] = species on record: Oryctolagus cuniculus; test: Effect on platelet aggregation induced by arachidonic acid(AA) in washed rabbit platelet
Oryctolagus cuniculus [4] = species on record: Oryctolagus cuniculus; test: Effect on platelet aggregation induced by platelet activating factor(PAF) in washed rabbit platelet

## CN1CCc2cc3c(c4c2[C@@H]1Cc1ccc2c(c1-4)OCO2)OCO3.O=[N+]([O-])c1cc([N+](=O)[O-])c(O)c([N+](=O)[O-])c1
Oryctolagus cuniculus [1]
  Aggregation: 90.2%
Oryctolagus cuniculus [2]
  Aggregation: 0%
Oryctolagus cuniculus [3]
  Aggregation: 77.3%
Oryctolagus cuniculus [4]
  Aggregation: 74.6%
